Experimental data: patent US9522139B2, “Fructose 1, 6-biphosphatases as new targets for diagnosing and treating breast cancer brain metastasis” (The University of Houston System, priority 2011, dated 2016)

Test system: MDA-MB-231Br3 cells
Test: Cell survival assay (trypan blue uptake) in glucose-free medium
Format: cell-based
Details: EGCG-treated cells, FIG. 2E

α-ketoglutarate [α-KG]
rescue of brain metastatic cells from GLUD inhibition by supplementation: completely rescues
